Source: ChEMBL document CHEMBL1136114, “Advances Toward new antidepressants beyond SSRIs: 1-aryloxy-3-piperidinylpropan-2-ols with dual 5-HT(1A) receptor antagonism/SSRI activities. Part 2” (Bioorg Med Chem Lett, 2003)

Amino acid sequences for entries named in this document (tags omitted).
UniProt P08908, whole entry: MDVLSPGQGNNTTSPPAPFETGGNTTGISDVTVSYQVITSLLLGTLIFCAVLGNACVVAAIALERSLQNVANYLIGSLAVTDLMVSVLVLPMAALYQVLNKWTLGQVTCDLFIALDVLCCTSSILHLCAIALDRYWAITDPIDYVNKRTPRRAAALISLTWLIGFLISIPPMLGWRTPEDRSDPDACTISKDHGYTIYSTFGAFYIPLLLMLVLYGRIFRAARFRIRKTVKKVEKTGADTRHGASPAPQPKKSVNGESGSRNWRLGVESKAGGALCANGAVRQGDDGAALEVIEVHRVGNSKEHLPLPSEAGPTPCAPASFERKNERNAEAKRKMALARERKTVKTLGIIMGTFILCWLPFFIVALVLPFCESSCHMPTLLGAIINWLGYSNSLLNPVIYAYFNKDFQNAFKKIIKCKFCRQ
UniProt P31652, whole entry: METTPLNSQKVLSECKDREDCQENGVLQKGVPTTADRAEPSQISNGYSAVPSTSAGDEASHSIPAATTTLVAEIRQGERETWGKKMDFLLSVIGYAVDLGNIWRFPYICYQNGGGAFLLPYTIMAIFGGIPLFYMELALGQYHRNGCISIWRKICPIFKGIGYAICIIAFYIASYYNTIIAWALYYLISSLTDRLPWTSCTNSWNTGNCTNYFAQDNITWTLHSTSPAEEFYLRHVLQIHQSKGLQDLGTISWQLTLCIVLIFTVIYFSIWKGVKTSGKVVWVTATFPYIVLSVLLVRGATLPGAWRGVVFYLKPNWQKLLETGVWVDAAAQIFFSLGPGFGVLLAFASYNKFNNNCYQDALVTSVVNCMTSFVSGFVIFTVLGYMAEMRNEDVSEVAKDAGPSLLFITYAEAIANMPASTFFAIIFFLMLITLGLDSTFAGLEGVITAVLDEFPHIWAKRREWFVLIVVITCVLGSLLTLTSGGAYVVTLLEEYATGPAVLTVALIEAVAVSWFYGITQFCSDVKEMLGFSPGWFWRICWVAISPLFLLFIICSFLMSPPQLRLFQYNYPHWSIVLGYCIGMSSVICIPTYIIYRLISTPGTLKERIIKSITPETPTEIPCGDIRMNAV

Experiments:
[1] = biological target: T1, 5-hydroxytryptamine receptor 1A (Homo sapiens, UniProt P08908); test: (§1) Inhibition of 5-HT induced [35S]GTP-gamma-S, binding at human cloned 5-HT 1A receptors.; assay type: functional
[2] = biological target: Sodium-dependent serotonin transporter (Rattus norvegicus, UniProt P31652); test: In vitro affinity at the 5-HT reuptake site using [3H]paroxetine as radioligand in rat frontal cortex membranes; assay type: cell membranes, Membrane
[3] = biological target: T1, 5-hydroxytryptamine receptor 1A; test: In vitro binding affinity at 5-hydroxytryptamine 1A receptor by [3H]8-OH-DPAT displacement.
[4] = biological target: T1, 5-hydroxytryptamine receptor 1A; test: as §1; assay type: functional; remark: listed apart in the source

Ki [1] | Ki [2] | Ki [3] | Emin [4] | Compound
2.33 nM | 0.27 nM | 3.64 nM | 7.83% | COc1cccc2sc([C@@H]3CCN(C[C@H](O)COc4cccc5[nH]ccc45)[C@@H](C)C3)cc12
 |  | 13.9 nM |  | C[C@H]1C[C@H](c2cc3c(F)cccc3s2)CCN1C[C@H](O)COc1cccc2[nH]ccc12
1.8 nM |  | 2.76 nM |  | COc1cccc2sc([C@@H]3CCN(C[C@H](O)COc4cccc5[nH]ccc45)[C@H](C)C3)cc12
16.4 nM | 13.6 nM | 14.4 nM |  | COc1cccc2sc([C@H]3CCN(C[C@H](O)COc4cccc5[nH]ccc45)[C@@H](C)C3)cc12
8.37 nM | 1.15 nM | 8.47 nM |  | COc1cccc2sc([C@H]3CCN(C[C@H](O)COc4cccc5[nH]ccc45)[C@H](C)C3)cc12
